{"source": "ChEMBL document CHEMBL3297699", "about": "“Synthesis of novel fluoro analogues of MKC442 as microbicides” (J Med Chem, 2014)", "experiment": "Cytotoxicity against human MT4 cells after 96 hrs by MTT assay", "type": "cell-based", "data": [{"smiles": "Cc1cc(C#N)cc(C)c1Oc1nc(Nc2ccc(C#N)cc2)nc(N)c1Br", "note": "[ETRAVIRINE]", "values": [{"measurement": "CC50 at 96 h", "value": 11, "unit": "µM"}]}]}
